Assays:
MAGE-11 mRNA [1] = assay: MAGE-11 mRNA by real-time PCR in ECC-1 cells; type: cell-based, human; conditions: 100 Units/ml hCG, 10 nM progesterone, 10 nM DHT or 10 ng/ml EGF
MAGE-11 mRNA [2] = assay: MAGE-11 mRNA by real-time PCR in Ishikawa cells; type: cell-based, human; conditions: 100 Units/ml hCG, 10 nM progesterone, 10 nM DHT or 10 ng/ml EGF

## hCG: human chorionic gonadotropin (Sigma)
MAGE-11 mRNA [1]
  change in MAGE-11 mRNA levels: unchanged
MAGE-11 mRNA [2]
  change in MAGE-11 mRNA levels: unchanged

— US20100150930A1, “MAGE-11 AS A MARKER FOR ENDOMETRIAL RECEPTIVITY TO EMBRYO TRANSPLANTATION AND A MARKER AND THERAPEUTIC TARGET IN CASTRATION-RECURRENT PROSTATE CANCER” (The University of North Carolina at Chapel Hill, priority 2007, published 2010)
